Bioassay records from PubChem.
Yeast UUG start: alters start codon recognition fidelity in yeast | S. cerevisiae UUG-firefly luciferase reporter, luminescence/redox ratio | activity score, % at 18.7 µM | 350,000 compounds, 0.13% hits | AID 602363;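 active = replicate mean at a twofold rise or more, about +100% in these data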;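 note: firefly luciferase made from a UUG start codon reports start codon fidelity; reporter light over untreated wells divided by growth signal over untreated wells; some hits fall short of that in this replicate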
MITF act: activators of MITF-driven TRPM1 promoter reporter, primary screen, cell-based, SK-MEL-5, luciferase, single point; hit rate 0.75% among 300,000; SK-MEL-5 TRPM1-promoter luciferase, 24 h; % of positive control, neutral wells = 0; activation, % at 12.5 µM;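 active = mean activation of at least 80% with every replicate also reaching 80%; inconclusive = mean reaches 80% but some replicate falls short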;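 also: 0% = neutral control wells and 100% = parthenolide positive control wells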
miR-122 sensor: miR-122 Renilla sensor signal increase in Huh7, primary screen, miR-122 inhibitor project, cell-based, single point, plate reader. activation (reporter increase), % at 12.5 µM. hit rate 0.3% among 340,000. Huh7 miR-122 Renilla luciferase sensor, 48 h; neutral wells = 0, positive control = 100. AID 602342, 2012;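 active = mean replicate activation score at least 90 and every replicate individually at or above 90; inconclusive = only one of the two criteria met; inactive = neither criterion met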;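 also: higher luciferase means less miR-122 activity so hits act as miR-122 inhibitors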
Wnt bcat act: Wnt/beta-catenin pathway activators, primary screen, cell-based, plate reader, single point; AID 743398, 2014; Wnt/beta-catenin reporter cell assay, activator; activation, % at 9.35 µM; hit rate 1.2% among 300,000; in the data active = activation above about 30%, passing the limit was not always enough; inconclusive = no clear call, values can overlap the other calls;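 also: 0% = neutral control wells and 100% = positive control wells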
TRPM1 prom inh: inhibitors of MITF-dependent TRPM1 promoter reporter, primary screen, cell-based, SK-MEL-5, single point, luciferase; SK-MEL-5 TRPM1 promoter luciferase, 24 h; inhibition, % at 12.5 µM; hit rate 0.83% among 330,000; AID 488899, 2010;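 active = mean inhibition across replicates of 60% or more, whatever share of single replicates reaches that level; inconclusive = some that reach 60%, reason not given; inactive = mean inhibition across replicates below 60%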
PGC1a acetyl inh: inhibitors of PGC1a acetylation signal, primary screen, cell-based, U2OS, AlphaScreen, inhibitor mode. AlphaScreen anti-acetyl-lysine; with virally co-expressed GCN5 acetyltransferase. inhibition, % at 15.6 µM. hit rate 0.17% among 350,000. AID 651687, 2012;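 active = every replicate shows inhibition of at least 40%; inconclusive = mean inhibition at least 40% but some replicate below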;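 also: 0% = neutral control wells and 100% = positive control wells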
* marks the source's active call; other numbers are inactive results; ? = inconclusive; / = no result; ! = repeats disagree; [ ] = remark or other dose. Sampled rows, rich in hits. Any-hit rate of the full collection: about 2.1%.

Yeast UUG start	MITF act	miR-122 sensor	Wnt bcat act	TRPM1 prom inh	PGC1a acetyl inh	SMILES
5	/	112*[16.7 µM]	/	/	9	COc1ccc(S(=O)(=O)N(C)C[C@H]2Oc3ccc(N(C)C)cc3C(=O)N([C@H](C)CO)C[C@@H]2C)cc1
5	/	4[16.7 µM]	/	/	2	C[C@H]1CN([C@@H](C)CO)C(=O)c2cc(N(C)C)ccc2O[C@H]1CN(C)S(=O)(=O)c1ccc(Cl)cc1
0	/	25[16.7 µM]	/	/	-2	O=C(Nc1ccc(Cl)cc1)N1C[C@H]2[C@@H](c3ccccc31)[C@@H](CO)N2C(=O)c1ccccn1
0	/	-3[16.7 µM]	/	/	/	C[C@H](CO)N1C[C@H](C)[C@@H](CN(C)C(=O)Nc2cccc3ccccc23)Oc2c(NC(=O)Nc3cccc4ccccc34)cccc2C1=O
2	/	4[16.7 µM]	/	/	9	C[C@@H]1CN([C@@H](C)CO)C(=O)Cc2cc(NS(=O)(=O)c3ccc(Cl)cc3)ccc2O[C@@H]1CN(C)C(=O)Nc1ccc(F)cc1
-10	/	1[16.7 µM]	/	/	1	COCC(=O)Nc1ccc2c(c1)C(=O)N(C)C[C@@H](OC)[C@H](C)CN(C(=O)c1ccccc1F)[C@@H](C)CO2
/	/	/	/	/	5	COc1ccccc1NC(=O)N[C@H]1CC[C@H](CC(=O)NCc2ccc(Cl)c(Cl)c2)O[C@H]1CO
/	-70	/	/	70*	/	Cc1ccc(C#CC[N+]2(CC#Cc3ccc(C)cc3)CCCCC2)cc1
15	/	/	/	/	11	O=C(C[C@H]1C=C[C@H](NC(=O)C2CC2)[C@@H](CO)O1)NCCCN1CCOCC1
-10	22	-2	38*	-19	3	O=C(Nc1ccc(F)c(Cl)c1)c1cc(-c2ccco2)on1
/	90*	-2	/	-82	1	Cc1ccc(NC(=O)c2cc(-c3ccco3)on2)cc1
/	3	/	0	-2	78*	COc1ccc(N=C2SCC(c3ccc(C)cc3)=NN2CCO)cc1
22	7	149*[16.7 µM]	-1	-5	-2	C[C@H](CO)N1C[C@H](C)[C@@H](CN(C)CC2CC2)Oc2c(NC(=O)C3CC3)cccc2C1=O
0	/	37[16.7 µM]	/	/	4	C[C@@H]1CN([C@H](C)CO)C(=O)c2cccc(NC(=O)C3CC3)c2O[C@H]1CN(C)CC1CCCCC1
-8	/	-10[16.7 µM]	/	/	3	C[C@@H]1CN([C@H](C)CO)C(=O)c2cccc(NC(=O)C3CC3)c2O[C@@H]1CN(C)CC1CC1
-1	/	104*[16.7 µM]	/	/	-1	C[C@@H]1CCCCO[C@@H](CN(C)CC2CCCCC2)[C@@H](C)CN([C@H](C)CO)C(=O)c2cc(NC(=O)CCC(F)(F)F)ccc2O1
-2	/	-5[16.7 µM]	/	/	-6	C[C@@H]1CCCCO[C@@H](CN(C)CC2CCCCC2)[C@H](C)CN([C@H](C)CO)C(=O)c2cc(NC(=O)CCC(F)(F)F)ccc2O1
-7	3	114*![16.7 µM]	2	5	-8	C[C@H](CO)N1C[C@H](C)[C@@H](CN(C)CC2CCCCC2)Oc2c(NC(=O)C3CC3)cccc2C1=O
-6	98*	2	26	-96	11	Fc1cccc(/C=N/Nc2cc(N3CCOCC3)ncn2)c1
/	55	16	44*	-49	6	Cc1cc(/C=C2/C(=O)N(C)C(=S)N2C)ccc1N1CCCC1
-18	50	-21	53*	-42	-1	Cc1cc(/C=C2\NC(=S)N(C)C2=O)ccc1N1CCCC1
-2	/	-2[16.7 µM]	/	/	10	CC(C)CC#Cc1cnc2c(c1)C(=O)N([C@@H](C)CO)C[C@@H](C)[C@H](CN(C)C(=O)CCN1CCCCC1)O2
/	92*	/	33*	-88	3	O=C(/C=C/c1ccco1)Nc1ccc2c(c1)OCO2
-15	60	-5	14	-52	13	O=C(/C=C/c1ccccc1)Nc1cccnc1Cl
-5	/	14	36*	-46	-5	O=C(/C=C/c1ccco1)Nc1cccnc1Cl
-15	2	23	110*	-3	/	CCc1ccccc1NC(=O)c1cccc(NC(=O)/C=C/c2ccco2)c1
-16	9	16	58*	-10	/	Cc1ccc(-n2nc3ccc(NC(=O)/C=C/c4ccco4)cc3n2)cc1
/	/	0[16.7 µM]	/	/	-3	C[C@H]1CN([C@@H](C)CO)S(=O)(=O)c2ccc(-c3ccncc3)cc2O[C@H]1CN(C)C(=O)C1CCC1
/	/	0[16.7 µM]	/	/	6	CC(C)NC(=O)Nc1ccc2c(c1)CC(=O)N([C@@H](C)CO)C[C@H](C)[C@@H](CN(C)C)O2
-17	23	-4	49*	-14	-9	Cn1nnc(NC(=S)NC(=O)c2ccc(-c3ccc(Br)cc3)o2)n1

Ordered by length of the SMILES (highest first): three of the compounds above
Yeast UUG start	MITF act	miR-122 sensor	Wnt bcat act	TRPM1 prom inh	PGC1a acetyl inh	SMILES
/	/	/	/	/	5	COc1ccccc1NC(=O)N[C@H]1CC[C@H](CC(=O)NCc2ccc(Cl)c(Cl)c2)O[C@H]1CO
-6	98*	2	26	-96	11	Fc1cccc(/C=N/Nc2cc(N3CCOCC3)ncn2)c1
/	92*	/	33*	-88	3	O=C(/C=C/c1ccco1)Nc1ccc2c(c1)OCO2

2 of the compounds above, in markdown.
| Compound | Yeast UUG start | MITF act | miR-122 sensor | Wnt bcat act | TRPM1 prom inh | PGC1a acetyl inh |
| --- | --- | --- | --- | --- | --- | --- |
| O=C(/C=C/c1ccco1)Nc1ccc2c(c1)OCO2 | / | 92* | / | 33* | -88 | 3 |
| Cc1ccc(-n2nc3ccc(NC(=O)/C=C/c4ccco4)cc3n2)cc1 | -16 | 9 | 16 | 58* | -10 | / |

Following part
Yeast UUG start	MITF act	miR-122 sensor	Wnt bcat act	TRPM1 prom inh	PGC1a acetyl inh	SMILES
/	/	29	-3	69*	-190	CC(=NNC(=S)N1CCC1)c1ccccn1
/	-9	-1	/	7	-3	O=C(Oc1cccc(-n2cnnn2)c1)c1ccco1
0	9	-3	77*	-9	-6	O=C(Oc1cccc2cccnc12)c1cccc(-n2cnnn2)c1
/	112*	/	6	-107	2	Cc1ccc(C(=O)Oc2cccc(-n3cnnn3)c2)cc1
4	90*	5	30	-87	3	CCN(CC1CCCO1)C(=O)c1cc(COc2cc(C)c(Cl)c(C)c2)on1 (stereo not given)
-9	?	/	35*	-74	/	Cc1cc(OCc2cc(C(=O)N3CCCCCC3)no2)cc(C)c1Cl
17	30	-1	5	-27	-8	O=C(c1cc(COc2ccc(F)cc2Cl)on1)N1CCCCCCC1
-3	47	-8	-4	-43	2	Cc1cc(OCc2cc(C(=O)N(C)CC3CCOCC3)no2)cc(C)c1Cl
2	144*	-6	27	-141	-1	O=C(c1cc(COc2ccc(F)cc2Cl)on1)N1CCCCCC1
-8	-77	6	-2	75*	-8	CCCOc1ccc(NC(=O)CC2C(=O)N(c3ccc(OCC)cc3)C(=S)N2C2CC2)cc1 (stereo not given)
/	-6	13	-1	4	-5	CS(=O)(=O)NCCCNc1ccc(C(F)(F)F)cc1[N+](=O)[O-]
/	90*	/	/	-89	/	Cc1cccc(OCCNc2ccc(C(F)(F)F)cc2[N+](=O)[O-])c1
7	/	52[16.7 µM]	/	/	0	C/C=C/c1ccc2c(c1)O[C@H](CN(C)C(=O)c1ccccc1F)[C@@H](C)CN([C@@H](C)CO)S2(=O)=O
-19	?	-1	46*	-84	/	O=C1c2ccccc2NC(c2ccc(-c3cccc(F)c3)o2)N1O (stereo not given)
-16	93*	-2	16	-86	4	Cc1nc(SCc2ccccc2)nc2c1CCC2
/	/	-19	-10	107*	-3	C=C1CC2(CC(c3ccccc3)OC(c3ccccc3)C2)OC1=O (stereo not given)
